The results in this text go back to patent publication US11975005B2, “Treatment of respiratory diseases” (TIANLI BIOTECH PTY LTD, priority 2015, dated 2024).

By UniProt entry, the sequences of proteins in these tests, tags left out. Residues count along the entry.
UniProt P36897, 34-503 limits assumed: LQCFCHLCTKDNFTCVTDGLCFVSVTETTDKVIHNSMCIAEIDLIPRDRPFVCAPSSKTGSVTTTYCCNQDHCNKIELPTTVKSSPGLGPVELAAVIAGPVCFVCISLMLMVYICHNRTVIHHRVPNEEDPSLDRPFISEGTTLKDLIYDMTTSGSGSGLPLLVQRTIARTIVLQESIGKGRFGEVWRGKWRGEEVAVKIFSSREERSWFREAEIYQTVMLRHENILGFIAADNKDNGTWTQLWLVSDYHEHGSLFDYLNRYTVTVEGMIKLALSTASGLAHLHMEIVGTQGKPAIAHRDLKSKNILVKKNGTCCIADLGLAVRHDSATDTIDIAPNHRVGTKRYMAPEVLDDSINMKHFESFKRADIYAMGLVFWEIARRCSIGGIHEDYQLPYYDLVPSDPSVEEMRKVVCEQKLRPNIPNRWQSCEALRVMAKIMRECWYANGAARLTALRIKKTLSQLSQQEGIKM

As a reminder, the IC50 is the concentration that inhibits the measured activity by half.

The target of the assay is ALK5 (Homo sapiens, UniProt P36897). Description: ALK5 inhibition (IC50). In kind it is biochemical. The following applies: read-out: IC50 ALK5.

For `NC(=O)c1ccc(-c2nc(-c3ccc4c(c3)OCCO4)c(-c3ccccn3)[nH]2)cc1`, the IC50 was determined as 540 nM.
